In patent publication US20240067944A1 (published 2024):

Tested on: human plasma-derived FX (Haematologic Technologies Inc, USA)

Work on “human plasma-derived FIXa (Haematologic Technologies Inc, USA)” yielded a KM (nM) of FX activation by free FIXa (10 nM) on phospholipid vesicles of 282 nM and a kcat/KM (1/(min * nM)) of FX activation by free FIXa (10 nM) of 2000 M⁻¹ s⁻¹.
